The chains behind the UniProt entries cited, without tags or fusion partners.
UniProt P17948, whole entry: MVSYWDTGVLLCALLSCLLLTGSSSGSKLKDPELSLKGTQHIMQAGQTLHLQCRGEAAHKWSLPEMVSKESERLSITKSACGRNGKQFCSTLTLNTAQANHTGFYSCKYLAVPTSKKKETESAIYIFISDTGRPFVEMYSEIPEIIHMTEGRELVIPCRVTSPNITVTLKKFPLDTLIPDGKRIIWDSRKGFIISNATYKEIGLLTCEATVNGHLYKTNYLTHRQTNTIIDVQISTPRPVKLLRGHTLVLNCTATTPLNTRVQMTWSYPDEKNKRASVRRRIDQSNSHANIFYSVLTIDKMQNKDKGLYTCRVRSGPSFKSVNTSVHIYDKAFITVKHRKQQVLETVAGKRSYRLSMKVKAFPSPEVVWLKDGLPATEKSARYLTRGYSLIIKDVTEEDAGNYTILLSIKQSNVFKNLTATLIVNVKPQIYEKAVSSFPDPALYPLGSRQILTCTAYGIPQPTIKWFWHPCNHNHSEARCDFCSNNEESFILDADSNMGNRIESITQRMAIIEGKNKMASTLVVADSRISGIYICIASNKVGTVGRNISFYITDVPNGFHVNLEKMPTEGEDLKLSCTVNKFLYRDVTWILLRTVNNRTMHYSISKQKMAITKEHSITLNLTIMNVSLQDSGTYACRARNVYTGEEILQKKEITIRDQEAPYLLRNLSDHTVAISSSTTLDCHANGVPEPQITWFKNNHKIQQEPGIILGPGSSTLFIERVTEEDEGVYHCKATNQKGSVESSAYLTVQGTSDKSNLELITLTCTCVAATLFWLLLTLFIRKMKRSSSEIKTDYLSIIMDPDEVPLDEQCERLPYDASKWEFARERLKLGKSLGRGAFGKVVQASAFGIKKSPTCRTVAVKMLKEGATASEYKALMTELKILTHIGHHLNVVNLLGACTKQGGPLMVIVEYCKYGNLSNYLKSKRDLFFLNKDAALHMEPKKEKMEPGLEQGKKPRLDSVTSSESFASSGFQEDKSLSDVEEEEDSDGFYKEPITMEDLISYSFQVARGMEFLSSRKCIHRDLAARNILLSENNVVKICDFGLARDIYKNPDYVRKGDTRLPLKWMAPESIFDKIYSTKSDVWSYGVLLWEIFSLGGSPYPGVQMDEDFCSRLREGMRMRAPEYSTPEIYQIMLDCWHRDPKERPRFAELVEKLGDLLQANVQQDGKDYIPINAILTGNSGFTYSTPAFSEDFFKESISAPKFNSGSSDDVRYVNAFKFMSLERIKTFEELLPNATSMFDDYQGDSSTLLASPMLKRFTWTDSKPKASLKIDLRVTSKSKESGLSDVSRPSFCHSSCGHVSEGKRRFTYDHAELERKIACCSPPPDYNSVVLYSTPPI

According to ChEMBL document CHEMBL1926631, “N⁴-Aryl-6-substitutedphenylmethyl-7H-pyrrolo[2,3-d]pyrimidine-2,4-diamines as receptor tyrosine kinase inhibitors” (Bioorg Med Chem, 2012):

Molecular target: Vascular endothelial growth factor receptor 1 (Homo sapiens, UniProt P17948)
Experiment: Inhibition of VEGFR1 tyrosine kinase activity in VEGF-stimulated human A498 cells after 60 mins by ELISA
Format: cell-based
How it was run: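 Then stimulated 10 min with 100 ng/mL growth factor: PDGF-BB for SF-539 (PDGFR-β), VEGF for A498 (VEGFR-1). Lysed in ice-cold TBS/0.05% triton with protease and phosphatase inhibitors, heat/ethanol-fixed. Total phosphotyrosine read by HRP anti-phosphotyrosine with luminol chemiluminescence.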

IC50: 16 µM
Structure (SMILES): Nc1nc(Nc2cccc(Br)c2)c2cc(Cc3cccc4ccccc34)[nH]c2n1
